Patent publication US7628996B2, “Sterile immunogenic non-tumorigenic tumor cell compositions and methods” (priority 2002, dated 2009)

Test system: colon tumor cells
Assay: Disinfection of trimmed colon tumor pieces before dissociation: tumor cell viability, yield, potency
Format: cell-based, human
Details: for Potency: per patient tumor sample
Text: For pathological staging purposes, the pathologist cuts the tumor to determine the deepest margin of penetration. Consequently, the excised tumors are comprised of several pieces of tumor tissue. The tissue was dissected to remove extraneous non-tumor and necrotic tissue. The trimmed tumor pieces were further subdivided to achieve homogeneity and divided into two to four groups for processing according to the experimental design. The tissue was divided as evenly as possible among the samples, taking care to make the tumor pieces in the experimental groups appear as identical as possible. The trimmed pieces were added to a tube containing 40 mL of disinfectant and then treated by shaking for 2 minutes at 200 rpm on a rotating platform shaker. The trimmed tumor pieces were then washed three times with HBSS and then dissociated. The amount of tumor dissociated was determined by weighing the tumor fragments prior to dissociation and after completion of the dissociation cycles. After dissociation, the tumor cell suspension was sampled for percent tumor cell viability, number of viable tumor cells, tumor cell potency and bioburden. The yield was defined as the number of viable tumor cells obtained per gram of tumor that was actually dissociated. The bioburden was normalized to CFU/10^7 viable tumor cells, approximately one dose of product.
Tumor sample 500-0051-KNO was washed with saline, a second wash with 1% Triton X-100 and followed by three additional saline washes (see Example 1). The resultant bioburden was below the limit of detection of the assay. In order to evaluate the ability of a disinfectant to remove bioburden, one to two logs of bioburden must be detectable in the control sample. In order to maximize the possible bioburden in the tumors and present a greater challenge to the disinfectant, the following modifications to the procedure were made: the tumors were minimally washed (one 500 mL quantity) prior to pathological dissection; the dissociations were performed in the absence of gentamicin.

sodium oxychlorosene [Clorpactin ®]
Potency (0.4% Clorpactin, 2 successive 2 min treatments): 98% and 97%
Potency (0.4% Clorpactin, one 2 min treatment): 99% and 98% and 97% and 100% and 94%
Potency (0.8% Clorpactin, 2 min): 96%
effect on yield of viable tumor cells (in words) (Clorpactin at 0.8% compared with 0.4%): further reduction in the yield of viable tumor cells
effect of disinfectant on tumor cell yield (in words) (treatment of trimmed tumor pieces, relative to control): more moderate reduction in tumor cell yield relative to the control; also recorded: only moderate losses in cell yield relative to the control

Where “and” joins values, the source holds several entries; their conditions need not be identical. Equal entries are not always repeated. Entries after “also recorded” stand apart in the source; their conditions may differ.
